The numbers were not newly measured in US11525155B2, “Stabilisation of biological samples” (QIAGEN GmbH, priority 2013, dated 2022), which cites them from elsewhere.

For one data set, the system named is cells. Conditions: even at extremely high concentrations; cited from earlier work.
In another data set the target is T1, calpain II (Homo sapiens, UniProt P17655).
T1 sequence (P17655 1-700): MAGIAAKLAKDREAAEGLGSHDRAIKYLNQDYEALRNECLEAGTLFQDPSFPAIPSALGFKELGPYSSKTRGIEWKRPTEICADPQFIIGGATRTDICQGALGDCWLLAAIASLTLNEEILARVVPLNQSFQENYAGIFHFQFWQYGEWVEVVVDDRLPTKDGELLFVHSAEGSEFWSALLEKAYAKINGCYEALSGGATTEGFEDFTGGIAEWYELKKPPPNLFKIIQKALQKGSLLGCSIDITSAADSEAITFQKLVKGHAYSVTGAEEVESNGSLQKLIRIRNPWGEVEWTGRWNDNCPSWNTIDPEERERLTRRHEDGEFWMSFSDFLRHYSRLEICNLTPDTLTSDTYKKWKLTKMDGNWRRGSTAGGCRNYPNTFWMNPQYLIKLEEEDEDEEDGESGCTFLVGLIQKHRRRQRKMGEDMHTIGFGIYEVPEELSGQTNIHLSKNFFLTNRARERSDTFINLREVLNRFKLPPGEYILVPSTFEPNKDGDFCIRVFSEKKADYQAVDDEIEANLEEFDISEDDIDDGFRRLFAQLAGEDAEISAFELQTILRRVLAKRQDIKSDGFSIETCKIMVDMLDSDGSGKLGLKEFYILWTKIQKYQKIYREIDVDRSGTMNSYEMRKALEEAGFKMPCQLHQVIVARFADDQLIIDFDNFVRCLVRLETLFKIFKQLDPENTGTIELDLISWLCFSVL
T1 sequence (P04632 1-268 partner): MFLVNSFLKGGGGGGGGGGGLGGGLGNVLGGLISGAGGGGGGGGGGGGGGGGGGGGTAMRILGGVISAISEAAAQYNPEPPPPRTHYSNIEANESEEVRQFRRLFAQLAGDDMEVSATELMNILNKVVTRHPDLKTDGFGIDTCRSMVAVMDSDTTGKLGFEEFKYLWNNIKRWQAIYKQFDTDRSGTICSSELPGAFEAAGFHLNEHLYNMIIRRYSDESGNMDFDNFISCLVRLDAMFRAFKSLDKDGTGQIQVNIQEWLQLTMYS
Conditions: cited from earlier work.

Regarding Quinoline-Val-Asp-CH2-OPH [Q-VD-OPh], the toxicity to cells entry in the data set with cells is given as “not toxic to cells”. As to Z-Val-Phe-CHO [Calpain Inhibitor III], the inhibition constant (Ki) on calpain II is 8 nM.

As a reminder, the Ki is a dissociation constant, usually derived from enzyme kinetics or from competition with a known ligand.
